We go through 74 molecules from PubChem BioAssay AID492972 (The Scripps Research Institute Molecular Screening Center, 2010).

Amino acid sequences for entries named in this document (tags omitted).
UniProt Q15102, whole entry: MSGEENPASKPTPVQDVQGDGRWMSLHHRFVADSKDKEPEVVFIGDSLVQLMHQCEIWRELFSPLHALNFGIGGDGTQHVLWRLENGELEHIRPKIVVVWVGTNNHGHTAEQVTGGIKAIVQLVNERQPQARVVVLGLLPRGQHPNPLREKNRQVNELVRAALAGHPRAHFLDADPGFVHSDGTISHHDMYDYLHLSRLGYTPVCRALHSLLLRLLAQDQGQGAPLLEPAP

As usually defined, the inhibition is the relative decrease from the control value, in per cent.

Only a part is listed here, and it is no random draw. Activity calls are given as the source filed them.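 Rule for the calls: active = inhibition above the screen-wide average of all tested compounds plus 3 SD (cut at about 25% in these data); inactive = the rest.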

In this assay the target is Platelet-activating factor acetylhydrolase IB subunit alpha1 (Homo sapiens) (UniProt Q15102). As to the kind of experiment: PAFAH1B3 enzyme inhibitors, primary screen, biochemical, fluorescence polarization, human (AID 492972).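 Note: 0% = enzyme with DMSO only and 100% = wells lacking PAFAH1B3 protein.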 As to conditions: recombinant PAFAH1B3, FP-rhodamine probe, at 3.39 µM, hits give high values. In general terms: Fluorescence polarisation rises when a labelled molecule tumbles more slowly, as on binding a larger partner.
For `O=C1CCN(Cc2ccccc2)CC1`, the inhibition was inactive: 0.84%. The figure for `CCOc1ccc(C)cc1CN(CCCl)CCCl` is inactive: 14%. To `O=C(NCC1(N2CCCCC2)CCCCC1)c1ccc(F)cc1` belongs inactive: 0.6%; to `CCCCOc1ccc(C(=O)NCC2(N3CCOCC3)CCCCC2)cc1`, inactive: -0.03%; to `O=P1(N(CCCl)CCCl)SCCCS1`, inactive: 4.6%. To `CCOC(=O)N1CCC(Nc2ccc(F)cc2)CC1` belongs inactive: -0.13%; to `COc1ccc(NC2CCN(CCc3ccccc3)CC2)c(OC)c1`, inactive: 2.97%. As to `COc1cc(C(=O)NCC2(N(C)C)CCCCC2)ccc1OC(F)F`, the inhibition is inactive: 2.52%. The figure for `CCOC(=O)N1CCC(Nc2cccc(C)c2)CC1` is inactive: 6.03%; for `COc1ccc(C(=O)NCC2(N3CCCCC3)CCCCC2)cc1` it is inactive: -1.57%.

Turning to `CC(C)(C)OC(=O)N1CCC(N(C(=O)c2ccccc2)c2ccc(F)cc2)CC1`, the inhibition was inactive: 9.19%. To `COc1ccc(C(=O)NCC2(N3CCCCC3)CCCCC2)c(OC)c1OC` belongs inactive: 0.51%.

Take `O=C(NCC1(N2CCCCC2)CCCCC1)c1ccc(=O)[nH]c1`: the inhibition is inactive: 4.22%. Regarding `O=C(NCC1(N2CCCCC2)CCCCC1)c1cccs1`, the inhibition is inactive: -6.02%.

Consider `CSc1ccccc1C(=O)NCC1(N2CCCCC2)CCCCC1`, for which the inhibition is inactive: -5.73%. Consider `Cc1cccc(NC2(C#N)CCN(Cc3ccccc3)CC2)c1`, for which the inhibition was inactive: 9.43%. To `O=C(NCC1(N2CCCCC2)CCCCC1)c1ccc(Cl)nc1` belongs inactive: -4.39%; to `Cc1cc(C)cc(N(C(=O)c2ccccc2)C2CCN(C(=O)OC(C)(C)C)CC2)c1`, inactive: -2.15%. The figure for `O=C(NCC1(N2CCOCC2)CCCCC1)c1cc2ccccc2o1` is inactive: 8.84%; for `O=C(OC1CN2CCC1CC2)C1c2ccccc2Oc2ccccc21` (centres undefined) it is inactive: -1.51%; for `N#CC1(Nc2ccccc2)CCN(Cc2ccccc2)CC1` it is inactive: 4.95%. As to `O=C(NCC1(N2CCCCC2)CCCCC1)c1ccc(Cl)s1`, the inhibition was inactive: -2.05%. As for `COc1ccc(Cl)cc1C(=O)NCC1(N2CCOCC2)CCCCC1`, the inhibition is inactive: 7.14%. To `CCOC(=O)N1CCC(Nc2ccc(OC)cc2)CC1` belongs inactive: 9.59%. Regarding `CC(C)c1ccc(NC2CCN(C(=O)OC(C)(C)C)CC2)cc1`, the inhibition is inactive: 1.32%. As for `COc1ccc(CN(CCCl)CCCl)cc1Cl`, the inhibition is inactive: 3.24%.

Take `CN(C)c1cccc(C(=O)NCC2(N3CCCCC3)CCCCC2)c1`: the inhibition is inactive: -1.71%. The figure for `COc1cc(OC)c(C(=O)NCC2(N(C)C)CCCCC2)cc1OC` is inactive: 6.92%; for `O=C(NCC1(N2CCOCC2)CCCCC1)c1cc(F)c(F)cc1Cl` it is inactive: 3.38%. To `O=C(NCC1(N2CCCCC2)CCCCC1)c1cncc(Br)c1` belongs inactive: -4.25%; to `CN1CCC(Nc2cccc(F)c2)CC1`, inactive: 10.3%; to `CCCOc1ccc(C(=O)NCC2(N(C)C)CCCCC2)cc1OC`, inactive: 5.19%. The figure for `O=C(NCC1(N2CCCCC2)CCCCC1)c1ccc(OC(F)F)cc1` is inactive: -1.14%; for `CCN1CCC(Nc2ccc(Cl)cc2)CC1` it is inactive: 4.44%. In the case of `N#CC1(Nc2ccccc2)CCN(CCc2ccccc2)CC1`, the inhibition was inactive: 2.5%. To `CSc1ccc(C(=O)NCC2(N3CCOCC3)CCCCC2)cc1` belongs inactive: -0.78%. On to `O=C(NCC1(N2CCCCC2)CCCCC1)c1cccc([N+](=O)[O-])c1`, for which the inhibition is inactive: 2.72%.

For `O=C(NCC1(N2CCCCC2)CCCCC1)c1cccc(C(F)(F)F)c1`, the inhibition is inactive: -2.24%. Consider `O=C(NCC1(N2CCOCC2)CCCCC1)c1cc(=O)[nH]c2ccccc12`, for which the inhibition is inactive: 8.97%. The figure for `COc1cc(C(=O)NCC2(N3CCCCC3)CCCCC2)ccc1OC(F)F` is inactive: -18.6%; for `CC(C)c1ccc(C(=O)NCC2(N3CCOCC3)CCCCC2)cc1` it is inactive: -0.19%. To `COc1ccc(NC2CCN(C(=O)OC(C)(C)C)CC2)cc1` belongs inactive: 6.88%. As to `CN1CCN(CCOC(=O)C(O)(c2ccccc2)c2ccccc2)CC1`, the inhibition is inactive: -1.48%. To `N#Cc1ccc(C(=O)NCC2(N3CCCCC3)CCCCC2)cc1` belongs inactive: 0.6%; to `CC(C)(C)OC(=O)N1CCC(N(C(=O)c2ccccc2)c2ccc(Cl)cc2)CC1`, inactive: 7.38%.

As for `CN(C)C1(CNC(=O)c2cccc(C#N)c2)CCCCC1`, the inhibition was inactive: 0.81%. For the molecule `c1ccc(CN2CCC(Nc3ccccc3)CC2)cc1`, the inhibition was inactive: 5.99%.

Take `Cc1cc(N(CCCl)CCCl)ccc1C=O`: the inhibition is inactive: -6.47%. To `CCCN1CCC(Nc2cc(OC)cc(OC)c2)CC1` belongs inactive: 6.23%; to `COc1cc(C(=O)NCC2(N3CCOCC3)CCCCC2)cc(OC)c1C`, inactive: 7.27%. Regarding `O=C(NCC1(N2CCOCC2)CCCCC1)c1cc(Br)ccc1Cl`, the inhibition is inactive: 3.54%.

`COc1ccc(C(=O)NCC2(N3CCOCC3)CCCCC2)cc1OC`: the inhibition was inactive: -3.32%. As to `CCOC(=O)N1CCC(Nc2ccc(C)cc2)CC1`, the inhibition was inactive: 1.82%. To `N/C(=N\O)c1c(N)no[n+]1[O-]` belongs inactive: -5.53%; to `O=C(OC1CN2CCC1CC2)C1c2ccccc2C=Cc2ccccc21` (centres undefined), inactive: 9.92%; to `CCOc1ncccc1C(=O)NCC1(N2CCOCC2)CCCCC1`, inactive: 8.22%. In the case of `CN1CCC(Nc2ccc(F)c(Cl)c2)CC1`, the inhibition is inactive: 4.89%. The figure for `CC(C)(C)OC(=O)N1CCC(Nc2ccccc2)CC1` is inactive: -3.22%; for `O=C(O)C1(Nc2ccccc2)CCN(Cc2ccccc2)CC1` it is inactive: 3.53%; for `CCCOc1ccc(C(=O)NCC2(N(C)C)CCCCC2)cc1` it is inactive: 3.79%.

For the molecule `COc1cccc(C(=O)N(c2cc(C)cc(C)c2)C2CCN(C(=O)OC(C)(C)C)CC2)c1`, the inhibition was inactive: 7.97%. The figure for `COc1cc(OC)cc(C(=O)NCC2(N3CCOCC3)CCCCC2)c1` is inactive: 6.4%.

Consider `CCC(CO)(C(=O)OC1CN2CCC1CC2)c1ccccc1` (centres undefined), for which the inhibition is inactive: 3.05%. The figure for `CN1CCC(Nc2ccc(Cl)cc2)CC1` is inactive: -0.36%; for `CC(=O)N(c1ccccc1)C1CCNCC1` it is inactive: 2.52%. As to `COc1cc(OC)cc(C(=O)NCC2(N3CCCCC3)CCCCC2)c1`, the inhibition is inactive: 2.49%.

With `Cc1ccc(C(=O)NCC2(N3CCCCC3)CCCCC2)o1`, the inhibition is inactive: 1.64%. The figure for `Fc1ccccc1NC1CCN(Cc2ccccc2)CC1` is inactive: 5.27%; for `Cc1ccc(NC2(C#N)CCN(Cc3ccccc3)CC2)cc1` it is inactive: 5.95%; for `Cc1ccccc1NC1(C#N)CCN(Cc2ccccc2)CC1` it is inactive: 6.04%. To `CCN1CCC(Nc2cccc(F)c2)CC1` belongs inactive: 5.32%; to `O=C(NCC1(N2CCCCC2)CCCCC1)c1ccco1`, inactive: -3.67%; to `Cn1c(=O)[nH]cc(N(CCCl)CCCl)c1=O`, inactive: 4.29%. For the molecule `CN(C)c1ccc(C(=O)NCC2(N3CCCCC3)CCCCC2)cc1`, the inhibition was inactive: -1.83%.
